# From PubChem BioAssay AID1671190 (National Center for Advancing Translational Sciences (NCATS), 2021)
# Chains of the proteins cited; added tags and fusions are not shown. Lines headed by an entry give the natural chain unless they say otherwise; changes in a name come on top.
# UniProt P18054: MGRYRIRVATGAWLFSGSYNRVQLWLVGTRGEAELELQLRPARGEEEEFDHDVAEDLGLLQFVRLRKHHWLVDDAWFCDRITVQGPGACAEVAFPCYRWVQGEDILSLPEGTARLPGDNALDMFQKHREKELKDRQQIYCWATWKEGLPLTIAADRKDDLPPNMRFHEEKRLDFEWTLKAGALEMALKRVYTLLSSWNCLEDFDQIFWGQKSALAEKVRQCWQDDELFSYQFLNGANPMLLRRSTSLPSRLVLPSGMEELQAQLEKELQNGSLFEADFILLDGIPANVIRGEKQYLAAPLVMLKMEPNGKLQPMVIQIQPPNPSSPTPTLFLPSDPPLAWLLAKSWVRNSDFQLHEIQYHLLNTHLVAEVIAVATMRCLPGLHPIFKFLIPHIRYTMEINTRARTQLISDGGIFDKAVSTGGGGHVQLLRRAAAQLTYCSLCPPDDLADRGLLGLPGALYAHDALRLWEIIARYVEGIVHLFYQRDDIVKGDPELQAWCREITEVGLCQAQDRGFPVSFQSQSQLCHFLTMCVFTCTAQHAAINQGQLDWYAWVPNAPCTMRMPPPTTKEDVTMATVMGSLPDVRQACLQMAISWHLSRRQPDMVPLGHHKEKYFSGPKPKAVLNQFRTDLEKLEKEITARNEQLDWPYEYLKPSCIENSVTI
# This is a selection; strong and weak results do not stand in their true shares. Results filed as inconclusive are left out. The source made the active and inactive calls. The call rests on the fitted dose curve; in most records, active means well fitted inhibition curve with a large enough effect; inconclusive means small, poorly fitted or top-dose-only effect, or another doubt; inactive means no such curve, though single readings can be large or run the other way.
# Target: Polyunsaturated fatty acid lipoxygenase ALOX12 (Homo sapiens) (UniProt P18054)
# Test: Primary qHTS assay for inhibitors of human arachidonate 12S-lipoxygenase (ALOX12): Round 2
# Details: purified 12hLO, xylenol orange hydroperoxide absorbance; series mostly up to 108 µM; activity change, negative = inhibition: at the top concentration
# From the text: Assay Provider: Theodore R. Holman Ph.D. University of California, Santa Cruz, California Human lipoxygenase 12hLO is a member of the closely related lipoxygenase family of enzymes which catalyze the site-specific oxidation of arachidonic acid to various hormone precursor molecules and as such is a candidate for drug development in a variety of disease areas, such as cancer and inflammation. Inhibition of 12hLO activity was screened by utilizing arachidonic acid as a substrate. The extent of hydroperoxide product formation was measured by a secondary chromogenic reaction in which xylenol orange (XO, Sigma-Aldrich, cat. number 39,818-7) reacts with the ferric ions produced from the reaction between the hydroperoxide and ferrous ions. The Fe (III)-XO complex is characterized with red-shifted absorbance at 560 nm. A purified preparation of human 12hLO was supplied by Dr. Holman laboratory, University of California, Santa Cruz.
# PROTOCOL TABLE SEQUENCE No. (e.g., 1, 2, 3, etc.); […] (e.g., Cells, Incubation, Reagent, etc.); VALUE; DESCRIPTION 1; Enzyme; 3 uL; 150 nM 12hLO enzyme solution dispensed in 1536-well Greiner black, clear bottom plates. 2; Compound; 23 nL; compounds and controls were added. 3; Incubate; 15 min; room temperature. 4; Substrate; 1 uL; 40 uM arachidonic acid (final concentration). 5; Incubate; 30 min; room temperature. 6; Reagent; 4 uL; Fe-XO solution was added to each well. 7; Incubation; 30 min; room temperature 8; Detector; absorbance; Read 1 at 405 nm absorbance using ViewLux (Perkin-Elmer) CCD imager. 9; Detector; absorbance; Read 2 at 573 nm absorbance using ViewLux (Perkin-Elmer) CCD imager. NOTES (numbers refer to sequence above) 1; 150 nM 12hLO (final concentration) in buffer solution (25 mM Hepes, 0.01% Triton X-100, pH 7.0) was dispensed in columns 1, 2, 5-48. Column 1 is neutral (100% activity). Buffer only was dispensed in columns 3 and 4 as no enzyme negative controls. The plates were covered with metal lids with gas-exchange holes. 2; Compounds were pin transferred via a Kalypsys Pin Tool (Wako USA) in column 5-48. Control compound was transferred in column 2, titration of nordihydroguaiaretic acid (NDGA, Sigma-Aldrich, N5023) with top concentration of 20 mM in DMSO then 1:3 dilution in duplicate. Dilution factor of 23 nL into 4 uL final assay volume. 3; Covered assay plates were incubated for 15 min at room temperature. 4; Substrate was added to start the reaction; 40 uM arachidonic acid (Sigma-Aldrich, St. Louis, MO) was dispensed throughout the plate. 6; Chromogenic detection reagent solution (divalent iron/xylenol orange, Fe-XO) was added to each well: 200 uM xylenol orange, 300 uM ferrous ammonium sulfate prepared freshly in 50 mM sulfuric acid. 8, 9; Two absorbance readouts were obtained at 405 nm and at 573 nm using a ViewLux high-throughput CCD plate imager (Perkin-Elmer). The 573 to 405 (Read 2 / Read 1) absorbance ratio was used to compute reaction progress.
# On the % scale 0 is the no-effect control and ±100 the full control effect.
Compound,"activity change, negative = inhibition",Potency
O=C(/C=C/c1ccccc1)OC1CN2CCC1CC2 (centres undefined),inactive: -3.91%,
CCCC1OP(=O)(Nc2ccccc2)OCC1CC (centres undefined),inactive: 1.73%,
CN(C)C1(CNC(=O)c2ccc(S(C)(=O)=O)cc2)CCCCC1,inactive: 1.93%,
Cc1nn(-c2ccccc2)c2c1P(=O)(N1CCOCC1)N(C)C(c1ccccc1)=N2 (centres undefined),inactive: 12.3%,
CC1CCC(C(C)C)C(OP(=O)(Nc2ccccn2)c2ccccc2)C1 (centres undefined),inactive: 1.25%,
Cc1ccc(C(=O)OC2CN3CCC2CC3)cc1 (centres undefined),inactive: -10%,
O=P1(Nc2ccc(Br)cn2)COc2ccccc2OC1,inactive: -7.04%,
NS(=O)(=O)c1cccc(NC(=O)COC(=O)C(O)(c2ccccc2)c2ccccc2)c1,inactive: 207%,
O=[As](O)(c1cccs1)c1cccs1,inactive: 7.88%,
Cc1ccc(OCC(=O)OC2CN3CCC2CC3)cc1 (centres undefined),inactive: 0%,
Nc1cccc([As](=O)(O)c2ccccc2)c1,inactive: 2.57%,
O=P1(Nc2ncccn2)COc2ccccc2OC1,inactive: 1.11%,
O=P1(N(CCCl)CCCl)NCCC(C(F)(F)F)O1 (centres undefined),inactive: 6.24%,
CC(C)(C)C(=O)NC(Sc1ncccn1)C(Cl)(Cl)Cl (centres undefined),inactive: -7.4%,
CN(CCCl)Cc1cc(Cl)c(NC2=NCCN2)c(Cl)c1,,inactive
CCOP(=O)(Nc1ccc(C)cn1)OCC,inactive: 59%,
O=P1(Nc2ccccn2)COc2ccccc2OC1,inactive: 0%,
CCC1=CC2Cc3nc4ccc(Cl)cc4c(N)c3C(C1)C2 (centres undefined),inactive: 35.6%,
CCOP(=O)(NC(=NC(C)c1ccccc1)NC(C)c1ccccc1)OCC (centres undefined),inactive: 13.8%,
CC(C)/C=N\N=C(\N)N[N+](=O)[O-],inactive: 12%,

Compound,"activity change, negative = inhibition",Potency
CN(C(=O)Cc1ccc(Cl)c(Cl)c1)[C@@H]1CCCC[C@H]1N1CCCC1,,inactive
CN(C(=O)Cc1ccc(Cl)c(Cl)c1)C1CCCC[C@@H]1N1CCCC1 (some centres undefined),inactive: 0.748%,
COc1ccccc1CNC(=O)COC(=O)C(O)(c1ccccc1)c1ccccc1,inactive: -2.74%,
c1nnnn1CCn1cnnn1,inactive: 0%,
CC(C)C(=O)NC(Sc1ccccc1)C(Cl)(Cl)Cl (centres undefined),inactive: 5.82%,
O=P(Nc1nccs1)(c1ccccc1)c1ccccc1,inactive: 0%,
O=P(Nc1nc2ccccc2s1)(c1ccccc1)c1ccccc1,inactive: 3.51%,
C[C@H]1OP(=O)(Oc2ccccc2)[C@H](O)[C@H](O)[C@H]1N=[N+]=[N-] (some centres undefined),inactive: -0.232%,
Nc1ccc(CCCCOc2ccccc2)cc1,inactive: -25.7%,
CN(C)C1(CNC(=O)c2ccc(Cl)c(S(N)(=O)=O)c2)CCCCC1,inactive: 0%,
C/C(N)=N\P(=O)(OCc1ccccc1)OCc1ccccc1,inactive: 2.55%,
Nc1ccc([As](=O)(O)c2ccc([N+](=O)[O-])cc2)cc1,inactive: -8.17%,
O=C(OC1CN2CCC1CC2)c1cccc(Cl)c1 (centres undefined),inactive: 0%,
O=[N+]([O-])c1ncn(CCn2cnc([N+](=O)[O-])n2)n1,inactive: 4.23%,
CC(=O)NC(SC(=S)N(C)C)C(Cl)(Cl)Cl (centres undefined),inactive: 10.4%,
O=[As](O)(c1ccccc1)c1ccc(O)cc1,inactive: 1.38%,
O=P1(N(CCCl)CCCl)OCCC2CCCCN21 (centres undefined),inactive: 14.7%,
O=C(NC1CCS(=O)(=O)C1)NP(=S)(Oc1ccccc1)Oc1ccccc1 (centres undefined),inactive: -5.3%,
c1ccc(-c2nn[nH]n2)c(-c2nn[nH]n2)c1,inactive: -4.48%,
Cc1ccc(NP(=O)(Oc2cccc(C)c2)Oc2cccc(C)c2)nc1,inactive: 3.48%,

Compound,"activity change, negative = inhibition",Potency
CN(C)C(=O)Oc1noc2ccccc12,inactive: 446%,
COC(=O)c1cc2c(s1)N=C(c1ccccc1)N(C)P2(=O)N1CCOCC1 (centres undefined),inactive: 34.1%,
CCn1nc(C(=O)NCC2(N3CCCCC3)CCCCC2)c2ccccc2c1=O,inactive: 11.2%,
Cc1ccc(OP(=O)(Nc2ccccn2)Oc2ccc(C)cc2)cc1,inactive: -20.1%,
CC(=O)NC(SC(=S)N(CC(C)C)CC(C)C)C(Cl)(Cl)Cl (centres undefined),inactive: 24%,
O=C(OC1CN2CCC1CC2)c1ccccc1 (centres undefined),inactive: 3.32%,
CCC(=O)N1C2C3N(C(=O)CC)C1C1N(C(=O)CC)C(C(N1C(=O)CC)N3C(=O)CC)N2C(=O)CC,inactive: 0%,
CC(C)(C)C(=O)NC(Sc1ccccc1)C(Cl)(Cl)Cl (centres undefined),inactive: 34.9%,
CCOc1ccc(C2=NCC(CBr)S2)cc1 (centres undefined),inactive: 4.03%,
CC(=O)Nc1ccc(Oc2c([N+](=O)[O-])cc([N+](=O)[O-])cc2[N+](=O)[O-])cc1,inactive: -28.6%,
CC(=O)c1ccc(N2CC2c2ccncc2)cc1 (centres undefined),inactive: 25.5%,
COC(=O)C1(C)COP(=O)(NCc2ccccc2)OC1 (centres undefined),inactive: -20.5%,
Cc1ccccc1CN(C)C(=O)COC(=O)C(O)(c1ccccc1)c1ccccc1,inactive: 32.7%,
C[C@@H]1C=CCP(=O)(Oc2ccccc2)O1 (some centres undefined),inactive: -10.6%,
C[C@H]1OP(=O)(Oc2ccccc2)C[C@@H]2O[C@@H]21 (some centres undefined),inactive: 6.97%,
COc1ccccc1OP(=O)(Nc1ccc(C)cn1)Oc1ccccc1OC,inactive: 12.2%,
Clc1ccc(Cl)c(NC2=NCC(CBr)S2)c1 (centres undefined),inactive: -22.3%,
NC(=O)c1cc([N+](=O)[O-])cc([N+](=O)[O-])c1N,inactive: -9.24%,
CN(C(=O)Cc1ccc(Cl)c(Cl)c1)[C@H]1CCCC[C@H]1N1CCCC1,inactive: -20.3%,
